In PubChem BioAssay AID504558 (Broad Institute, 2011):
This is a selection; strong and weak results do not stand in their true shares. Activity calls are given as the source filed them. No stated cut-off is given here; in the data, active means inhibition above about 41%; inconclusive means no clear call, values can overlap the other calls; inactive means below that.

Assay: blockers of LMP1-induced NF-kB reporter signal – cell-based, luminescence, single point, primary screen (AID 504558);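 further: 0% = neutral control wells and 100% = reference inhibitor control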
Details: LMP1-induced NF-kappaB luciferase reporter cells, at 12.5 µM, active compounds read high

SMILES | inhibition
CCOC(=O)Nc1ccc([As](=O)(O)O)c(O)c1 | inactive: -0.133%
O=C(O)C(O)c1ccc(N(CCCl)CCCl)cc1 (centres undefined) | inactive: 30%
CC1CCNP(=O)(N(CCCl)CCCl)O1 (centres undefined) | inactive: -2.28%
COP(=O)(OC)N1CC1c1ccccc1 (centres undefined) | inactive: 5.04%
CCCCOc1ccc(C(=O)NCC2(N3CCCCC3)CCCCC2)cc1OC | inactive: -55.9%
Cc1cc(SC(NC(=O)c2ccccc2)C(Cl)(Cl)Cl)nc(C(C)C)n1 (centres undefined) | inactive: -0.748%
CCOC(=O)Nc1cccc([As](=O)(O)O)c1 | inactive: -4.91%
O=P(Nc1ccccn1)(c1cccc2ccccc12)c1cccc2ccccc12 | inactive: 5.42%
Cc1cc(SC(NC=O)C(Cl)(Cl)Cl)ncn1 (centres undefined) | inactive: 4.95%
O=[N+]([O-])c1ccc(Nc2ccc(Oc3ccc([N+](=O)[O-])cc3[N+](=O)[O-])cc2)c([N+](=O)[O-])c1 | inactive: 5.19%
C[As](=O)(O)c1cccc(C(=O)O)c1 | inactive: -2.33%
O=[As](O)(c1ccc(O)cc1)c1ccccc1O | inactive: -8.24%
COc1cc(C(=O)NCC2(N3CCOCC3)CCCCC2)ccc1OCC(C)C | inactive: 24.7%
O=[N+]([O-])c1ccc(-c2cc([N+](=O)[O-])c(O)c([N+](=O)[O-])c2)cc1 | inactive: -1.78%
Cc1ccc(OP(=O)(Nc2ccc([N+](=O)[O-])cn2)Oc2ccc(C)cc2)cc1 | inactive: -11%
Cc1ccc2nc3c(c(C)c2c1)CC(C(Cl)Cl)S3 (centres undefined) | inactive: -31.3%
ClCCSc1nnc(-c2cccnc2)o1 | inactive: 7.32%
CC(C)c1ccc(OP(=O)(Nc2ccccn2)Oc2ccccc2F)cc1 (centres undefined) | inactive: 0.6%
COC(=O)C1(C)COP(=O)(N2CCCCCC2)OC1 (centres undefined) | inactive: 4.03%
CCN(CC)C(=S)SC(NC=O)C(Cl)(Cl)Cl (centres undefined) | inactive: 8.93%
O=C(OC1CN2CCC1CC2)c1cccc2[nH]cnc12 (centres undefined) | inactive: -21.6%
CC(C)NC(=O)NP(=O)(Oc1ccccc1)Oc1ccccc1 | inactive: -1.78%
O=[N+]([O-])c1cc([N+](=O)[O-])c(-c2ccn[nH]2)s1 | inactive: -14.1%
Cc1c2c(nc3ccccc13)SC(C(Cl)Cl)C2 (centres undefined) | inactive: -1.52%
O=C(OC1CN2CCC1CC2)C12CC3CC(CC(C3)C1)C2 (centres undefined) | inactive: 3.32%
Cc1cc(=O)[nH]c(N[N+](=O)[O-])n1 | inactive: 0.619%
O=P1(N(CCCl)CCCl)Nc2ccccc2N1 | inactive: -11.1%

SMILES | inhibition
O=P1(N(CCCl)CCCl)OCCCN1CCCl (centres undefined) | inactive: 2.4%
COc1ccc2nc(NP(=O)(c3ccccc3)c3ccccc3)sc2c1 | inactive: 5.2%
COc1cc(I)ccc1[As](=O)(O)O | inactive: -2.43%
O=[N+]([O-])c1cc(Oc2ccc([N+](=O)[O-])cc2C(F)(F)F)cc([N+](=O)[O-])c1 | inactive: -1.81%
COc1ccc(N/C(=N/P(=O)(N2CCOCC2)N2CCOCC2)N2CCOCC2)cc1 | inactive: 9.02%
O=C(OC1CN2CCC1CC2)c1ccc(Cl)cc1 (centres undefined) | inactive: 13%
COc1cc(C(=O)NCC2(N3CCOCC3)CCCCC2)cc(Cl)c1OC(C)C | inactive: -28.3%
O=[As](O)(O)c1cccnc1 | inactive: 3.22%
CS(=O)(=O)c1ccc(Cl)c(NC(=O)COC(=O)C(O)(c2ccccc2)c2ccccc2)c1 | inactive: -25.6%
O=[As](O)(c1cccc(O)c1)c1cccc(O)c1 | inactive: -4.9%
Cc1cccc(OCC(=O)OC2CN3CCC2CC3)c1 (centres undefined) | inactive: -1.75%
Cc1ccc(NCCc2c([N+](=O)[O-])cc([N+](=O)[O-])cc2[N+](=O)[O-])cc1 | inactive: 2.62%
Nc1cccc2c([As](=O)(O)O)cccc12 | inactive: 10.5%
CCCOP(=S)(Nc1nc(N)cc(=O)[nH]1)OCCC | inactive: -0.736%
COc1cc(C2NCCC3(OCCO3)C2(C)C)cc(OC)c1OC (centres undefined) | inactive: -2.32%
CCOP(=O)(Nc1cccc2ccccc12)OCC | inactive: -0.133%
CCOP1(=S)c2c(C)nn(CCC#N)c2N=C(c2ccccc2F)N1C (centres undefined) | inactive: -1.86%
O=P(Nc1nccs1)(c1ccccc1)c1nc2ccccc2s1 (centres undefined) | inactive: -15.2%
O=P(Nc1nccs1)(Oc1ccccc1)Oc1ccccc1 | inactive: 0.946%
CS(=O)(=O)c1cc([N+](=O)[O-])c2no[n+]([O-])c2c1 | inactive: -3.76%
Nc1ccccc1[As](=O)(O)c1ccccc1 | inactive: 0.621%
O=C(O)COc1ccc([As](=O)(O)O)cc1[N+](=O)[O-] | inactive: -1.94%
NC(=O)Nc1ccc([As](=O)(O)O)cc1 | inactive: 1.48%
N#CCCN(C(=O)COC(=O)C(O)(c1ccccc1)c1ccccc1)c1ccc(F)cc1 | inactive: -9.77%
CN(C(=O)Cc1ccccc1)[C@@H]1CC[C@]2(CCCO2)C[C@H]1N1CCCC1 | inactive: 4.61%
CCOP1(=S)c2c(C)nn(CCC#N)c2N=C(c2ccc(F)cc2)N1C (centres undefined) | inactive: -7.27%
CN(C)C(=O)c1cc([N+](=O)[O-])cc2c1-c1c(cc([N+](=O)[O-])cc1[N+](=O)[O-])C2=O | inactive: 31.1%

SMILES | inhibition
O=[N+]([O-])c1ccc2c(c1)nnn2O | inactive: -13.6%
CN(C(=O)Cc1ccc(Cl)c(Cl)c1)[C@H]1CC[C@@]2(CCCO2)C[C@@H]1N1CCCC1 | inactive: 1.84%
Cc1nn(-c2ccccc2)c2c1P(=O)(N1CCOCC1)N(C)C(c1ccccc1)=N2 (centres undefined) | inactive: 1.74%
CC1CCC(C(C)C)C(OP(=O)(Nc2ccccn2)c2ccccc2)C1 (centres undefined) | inactive: -1.37%
Cc1ccc(C(=O)OC2CN3CCC2CC3)cc1 (centres undefined) | inactive: 6.09%
CN(C)C1(CNC(=O)c2ccc(S(C)(=O)=O)cc2)CCCCC1 | inactive: -0.713%
O=C(/C=C/c1ccccc1)OC1CN2CCC1CC2 (centres undefined) | inactive: -7.13%
CCCC1OP(=O)(Nc2ccccc2)OCC1CC (centres undefined) | inactive: -2.3%
O=P1(Nc2ncccn2)COc2ccccc2OC1 | inactive: 3.01%
Nc1cccc([As](=O)(O)c2ccccc2)c1 | inactive: -4.43%
O=P1(Nc2ccc(Br)cn2)COc2ccccc2OC1 | inactive: 3.86%
NS(=O)(=O)c1cccc(NC(=O)COC(=O)C(O)(c2ccccc2)c2ccccc2)c1 | inactive: 0.744%
Cc1ccc(OCC(=O)OC2CN3CCC2CC3)cc1 (centres undefined) | inactive: 3.17%
O=[As](O)(c1cccs1)c1cccs1 | inactive: 0.924%
O=P1(Nc2ccccn2)COc2ccccc2OC1 | inactive: -3.55%
CCC1=CC2Cc3nc4ccc(Cl)cc4c(N)c3C(C1)C2 (centres undefined) | inactive: 11.1%
CCOP(=O)(NC(=NC(C)c1ccccc1)NC(C)c1ccccc1)OCC (centres undefined) | inactive: 2.63%
CCOP(=O)(Nc1ccc(C)cn1)OCC | inactive: -6.46%
O=P1(N(CCCl)CCCl)NCCC(C(F)(F)F)O1 (centres undefined) | inactive: 0.163%
Clc1n[nH]nc1-c1nn[nH][15n]1 | inactive: -3.39%
CC(C)(C)C(=O)NC(Sc1ncccn1)C(Cl)(Cl)Cl (centres undefined) | inactive: 0.053%
COc1ccccc1CNC(=O)COC(=O)C(O)(c1ccccc1)c1ccccc1 | inactive: 8.48%
CC(C)/C=N\N=C(\N)N[N+](=O)[O-] | inactive: -2.93%
CN(C(=O)Cc1ccc(Cl)c(Cl)c1)[C@@H]1CCCC[C@H]1N1CCCC1 | inactive: -2.53%
CC1(CBr)Cn2c(nc3ccccc3c2=O)S1 (centres undefined) | inactive: -9.21%
